The text below walks through data of PubChem BioAssay AID2540 (Sanford-Burnham Center for Chemical Genomics, 2010).

By UniProt entry, the sequences of proteins in these tests, tags left out.
UniProt Q96LD8, whole entry: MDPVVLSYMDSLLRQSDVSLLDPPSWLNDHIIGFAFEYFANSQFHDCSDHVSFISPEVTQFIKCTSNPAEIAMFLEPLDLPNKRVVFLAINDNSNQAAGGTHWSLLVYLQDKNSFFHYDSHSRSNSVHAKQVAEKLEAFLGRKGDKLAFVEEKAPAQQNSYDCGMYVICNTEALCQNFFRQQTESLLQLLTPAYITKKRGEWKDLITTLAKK

In general, inhibition refers to the relative decrease from the control value, in per cent.

The entries are a selection whose mix differs from that of the whole data set. The source made the active and inactive calls. No stated cut-off is given here; in the data, active means inhibition above about 50%; inactive means the rest.

This assay addresses Sentrin-specific protease 8 (Homo sapiens) (UniProt Q96LD8). In words: blockers of human SENP8 peptidase activity – biochemical, luminescence, primary screen (AID 2540). The note with it: purified SENP8, Z-RLRGG-aminoluciferin cleavage, at 10 µM, active compounds read high.
On to `CCC(=O)N(c1ccccc1)C1(COC)CCN(CCn2nnn(CC)c2=O)CC1`, for which the inhibition is inactive: -3.5%. Next, `CCC(=O)N(c1ccccc1)C1(COC)CCN(CCc2cccs2)CC1`: inactive: -8.54%.
